Earlier results in patent publication US20220026411A1, “ANALYTICAL METHODS AND ARRAYS FOR USE IN THE SAME” (SENZAGEN AB, priority 2019, published 2022).

Settings: training data set; as defined by available literature and expert consensus; cited from earlier work

ethylendiamine
Function in study: RS/SS
